The record followed here is patent publication US20220204560A1, “NOVEL OLIGOPEPTIDE, AND PHARMACEUTICAL COMPOSITION FOR PREVENTING OR TREATING CANCER, COMPRISING THE SAME AS AN ACTIVE INGREDIENT” (L-BASE CO., LTD., priority 2019, published 2022).

Data set [1] concerns lung cancer cell line A549. The note with it: A549, 100 μM or 500 μM, 72 hours, compared to control group (FIG. 1).
Data set [2] concerns lung cancer cell line H1650. Particulars: H1650, 100 μM or 500 μM, 72 hours, compared to control group (FIG. 2).

Take `C[C@H](N)C(=O)N[C@@H](CCC(N)=O)C(=O)N[C@H](C(=O)N[C@@H](C)C(=O)N[C@H](C(=O)NCC(=O)N[C@@H](CCCCN)C(=O)N[C@H](C(=O)O)[C@@H](C)O)[C@@H](C)O)[C@@H](C)O` [AQTATGKT]: the “cytotoxicity (proliferation suppressive effect, MTT assay)” value (shortened to “cytotoxicity”) in data set [1] and in data set [2] was “significant cytotoxicity” in each case.
As to `CSCC[C@H](NC(=O)[C@@H](NC(=O)[C@H](CCC(N)=O)NC(=O)[C@H](C)N)[C@@H](C)O)C(=O)N[C@H](C(=O)NCC(=O)N[C@@H](CCCCN)C(=O)N[C@H](C(=O)O)[C@@H](C)O)[C@@H](C)O` [AQTMTGKT], the “cytotoxicity” value in data set [1] and in data set [2] was “significant cytotoxicity” throughout.
For the molecule `C[C@H](N)C(=O)N[C@@H](CCC(N)=O)C(=O)N[C@H](C(=O)N1CCC[C@H]1C(=O)N[C@H](C(=O)NCC(=O)N[C@@H](CCCCN)C(=O)N[C@H](C(=O)O)[C@@H](C)O)[C@@H](C)O)[C@@H](C)O` [AQTPTGKT], the “cytotoxicity” value in data set [1] and in data set [2] was “significant cytotoxicity” each time.
As for `CC(C)[C@H](NC(=O)[C@@H](NC(=O)[C@H](CCC(N)=O)NC(=O)[C@H](C)N)[C@@H](C)O)C(=O)N[C@H](C(=O)NCC(=O)N[C@@H](CCCCN)C(=O)N[C@H](C(=O)O)[C@@H](C)O)[C@@H](C)O` [AQTVTGKT], the “cytotoxicity” value in data set [1] and in data set [2] was “significant cytotoxicity” each time.
